We go through 1 compound from patent US6417178B1, “Amyloid binding nitrogen-linked compounds for the antemortem diagnosis of alzheimer's disease, in vivo imaging and prevention of amyloid deposits” (University of Pittsburgh, priority 1994, dated 2002).

The conditions of data set [1]: female, Swiss-Webster, mouse, in vivo, iv, 15 min.
Data set [2] concerns control brain homogenates. The data set is described as follows: [14C]CG binding to control brain homogenates. On the set-up: species or system human. The note with it: average CBR ±SEM.
Data set [3] relates to AD brain homogenates. The data set is described as follows: [14C]CG binding to AD brain homogenates. Particulars: average CBR ±SEM, high- and low-plaque AD brains combined.

For the compound `O=C(O)c1cc(N=Nc2ccc(-c3ccc(N=Nc4ccc(O)c(C(=O)O)c4)cc3)cc2)ccc1O` [Chrysamine G, 4,4′-bis(3-carboxy-4-hydroxyphenylazo)-biphenyl], the brain/kidney ratio in data set [1] is approximately 0.5. Further, the “total binding as a ratio to cerebellum, Control (CBR)” value in data set [2] (Frontal Pole) is reported as 0.87 ± .04 (n = 6); in data set [2] (Head of Caudate) it was 0.95 ± .04 (n = 4); in data set [2] (Inferior Parietal), 0.90 ± .08 (n = 8); in data set [2] (Occipital) it was 0.77 ± .13 (n = 8); in data set [2] (Superior Temporal), 0.86 ± .08 (n = 8); in data set [2] (Superior/Middle Frontal), 0.73 ± .02 (n = 8). In addition, the “total binding as a ratio to cerebellum, AD (CBR)” value is 1.87 ± .25 (n = 10) in data set [3] (Frontal Pole); 1.76 ± .31 (n = 7) in data set [3] (Head of Caudate); 1.93 ± .20 (n = 11) in data set [3] (Inferior Parietal); 1.44 ± .20 (n = 11) in data set [3] (Occipital); 1.63 ± .17 (n = 11) in data set [3] (Superior Temporal); 1.84 ± .18 (n = 11) in data set [3] (Superior/Middle Frontal).
